Experimental data from publication PMC8376931, “Structure activity relationships and the binding mode of quinolinone-pyrimidine hybrids as reversal agents of multidrug resistance mediated by P-gp” (Scientific Reports, 2021).

Sequences of proteins named here, by UniProt entry; tags and fusion partners are left off.
UniProt P08183, whole entry: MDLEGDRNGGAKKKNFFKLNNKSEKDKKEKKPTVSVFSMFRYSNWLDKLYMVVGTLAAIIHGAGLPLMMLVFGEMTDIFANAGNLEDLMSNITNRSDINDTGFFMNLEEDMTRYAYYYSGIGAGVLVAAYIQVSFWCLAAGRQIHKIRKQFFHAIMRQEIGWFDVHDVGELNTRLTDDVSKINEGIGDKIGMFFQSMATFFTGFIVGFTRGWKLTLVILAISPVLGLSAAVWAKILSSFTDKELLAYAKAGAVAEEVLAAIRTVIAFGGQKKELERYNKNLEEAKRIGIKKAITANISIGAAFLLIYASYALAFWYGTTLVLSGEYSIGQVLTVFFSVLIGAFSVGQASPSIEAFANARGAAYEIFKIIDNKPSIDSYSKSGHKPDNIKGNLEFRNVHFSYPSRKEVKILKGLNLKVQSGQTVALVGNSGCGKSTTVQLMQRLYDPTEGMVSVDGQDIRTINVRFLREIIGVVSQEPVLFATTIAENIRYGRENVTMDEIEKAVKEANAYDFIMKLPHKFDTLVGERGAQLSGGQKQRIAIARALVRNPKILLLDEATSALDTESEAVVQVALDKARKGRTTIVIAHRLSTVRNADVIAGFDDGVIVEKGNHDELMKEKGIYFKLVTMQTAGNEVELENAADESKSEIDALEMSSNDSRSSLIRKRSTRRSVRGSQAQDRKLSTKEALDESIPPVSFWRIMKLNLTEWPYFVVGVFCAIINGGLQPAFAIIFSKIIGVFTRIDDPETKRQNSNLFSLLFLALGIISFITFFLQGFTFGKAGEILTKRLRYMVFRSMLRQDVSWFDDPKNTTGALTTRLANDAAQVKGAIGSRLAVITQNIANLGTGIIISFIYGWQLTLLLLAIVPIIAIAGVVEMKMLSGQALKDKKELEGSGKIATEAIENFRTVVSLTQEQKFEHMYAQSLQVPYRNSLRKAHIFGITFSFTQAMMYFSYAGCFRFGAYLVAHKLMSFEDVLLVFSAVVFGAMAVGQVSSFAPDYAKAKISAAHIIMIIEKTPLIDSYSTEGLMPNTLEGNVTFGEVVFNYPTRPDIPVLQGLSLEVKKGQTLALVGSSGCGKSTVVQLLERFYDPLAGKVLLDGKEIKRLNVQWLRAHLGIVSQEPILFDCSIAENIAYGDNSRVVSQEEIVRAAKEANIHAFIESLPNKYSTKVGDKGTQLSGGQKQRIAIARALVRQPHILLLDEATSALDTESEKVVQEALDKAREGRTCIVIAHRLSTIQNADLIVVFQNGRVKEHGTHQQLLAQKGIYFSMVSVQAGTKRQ

Assays:
P-gp = P-gp (Homo sapiens, UniProt P08183)
Lucena 1 cells = assay: MTT cytotoxicity assay in Lucena 1; settings: ratio of IC50 to Dox

Structure (SMILES): COc1cccc2c1C(=O)c1c(O)c3c(c(O)c1C2=O)C[C@@](O)(C(=O)CO)C[C@@H]3O[C@H]1C[C@H](N)[C@H](O)[C@H](C)O1 [doxorubicin, reference compound]
- Dox fluorescence intensity, fold lower in Lucena 1 with respect to K562 (P-gp): 2.31 fold
- fold resistance of Lucena 1 compared to parental K562 (Lucena 1 cells): 35.8 fold
